The results in this text go back to PubChem BioAssay AID1222 (Sanford-Burnham Center for Chemical Genomics, 2008).

Some of the results follow. Entries with a potency or affinity are not part of this list. Activity calls are given as the source filed them.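 How the source made its calls: active means EC50 below 50 µM in the dose-response confirmation; inactive means the rest.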

The assay is described as follows: rescue of cells from ER stress-induced death, primary screen, 384-well, CSM14.1, thapsigargin, ATP luminescence (AID 1222).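 Further: death triggered by thapsigargin at about 15 µM added after 2 h compound pretreatment; cell ATP read after overnight thapsigargin exposure of roughly 18 to 22 hours; reference of the scale not given here.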 Particulars: CSM14.1 thapsigargin-induced death rescue, at 20 µM, stronger effect = higher value.
In the case of `CCOC(=O)c1ccc(NP(C)(=O)Oc2ccc(F)cc2)cc1` (configuration not stated), the cellular ATP content (survival) is inactive: -3.8%.

With `COc1ccc(OP(C)(=O)Nc2ccc(SC(F)(F)F)cc2)cc1` (configuration not stated), the cellular ATP content (survival) was inactive: -1.4%.

Take `CP(=O)(Nc1ccccc1)Oc1ccc(F)cc1` (configuration not stated): the cellular ATP content (survival) was inactive: -0.9%.

With `CCN(CC)CCCOC(=O)C(O)(c1ccccc1)C1CCCCC1` (configuration not stated), the cellular ATP content (survival) was inactive: -2.9%.

Consider `CP(=O)(Nc1ccccc1F)Oc1ccccc1` (configuration not stated), for which the cellular ATP content (survival) is inactive: 1.5%.

With `CC(C)c1ccc(OP(C)(=O)Nc2ccc(SC(F)(F)F)cc2)cc1` (configuration not stated), the cellular ATP content (survival) is inactive: -3.7%.

Turning to `O=C(OCCN1CCN(CCOCc2ccccc2)CC1)C(O)(c1ccccc1)c1ccccc1`, the cellular ATP content (survival) was inactive: -1.2%.

For `CCOP(C)(=S)SCC(=O)NC(C)(CC)C(=O)O` (configuration not stated), the cellular ATP content (survival) was inactive: -4.2%.

For the compound `CP(=O)(Nc1ccc2c(c1)OCCO2)Oc1ccccc1` (configuration not stated), the cellular ATP content (survival) was inactive: 2.3%.

On to `CN(C)CCOC(=O)C(O)(c1ccccc1)C1CCCCC1` (configuration not stated), for which the cellular ATP content (survival) was inactive: -0.2%.

For the compound `COc1ccc(NP(C)(=O)Oc2ccccc2OC)cc1` (configuration not stated), the cellular ATP content (survival) was inactive: 0.3%.

On to `COc1ccc(OP(C)(=O)Nc2cccc(Br)c2)cc1` (configuration not stated), for which the cellular ATP content (survival) is inactive: -0.8%.

With `O=[N+]([O-])c1cc([N+](=O)[O-])c(NCC2CCS(=O)(=O)C2)c([N+](=O)[O-])c1` (configuration not stated), the cellular ATP content (survival) is inactive: 4.8%.

As to `CCOC(=O)c1ccc(NP(C)(=O)Oc2ccc(Cl)cc2)cc1` (configuration not stated), the cellular ATP content (survival) was inactive: 2.7%.

Regarding `CP(=O)(OC12CC3CC(CC(C3)C1)C2)OC12CC3CC(CC(C3)C1)C2`, the cellular ATP content (survival) was inactive: 2.2%.

As for `COc1ccccc1OP(C)(=O)Nc1c(C)n(C)n(-c2ccccc2)c1=O` (configuration not stated), the cellular ATP content (survival) was inactive: -1.4%.

Turning to `CCc1ccc(OP(C)(=O)Nc2cccnc2)cc1` (configuration not stated), the cellular ATP content (survival) is inactive: -0.8%.

Regarding `CP(=O)(Oc1ccccc1)N1CCOC1=O` (configuration not stated), the cellular ATP content (survival) is inactive: 1.6%.

For the compound `COc1ccc(OP(C)(=O)Nc2ccc(Br)cc2)cc1` (configuration not stated), the cellular ATP content (survival) is inactive: 4.8%.

In the case of `CCN(CC)CC(O)COC(=O)C(O)(c1ccccc1)C1CCCCC1` (configuration not stated), the cellular ATP content (survival) is inactive: -0.1%.

As to `CN(C)C(=O)c1c([N+](=O)[O-])cc([N+](=O)[O-])cc1[N+](=O)[O-]`, the cellular ATP content (survival) is inactive: -0.8%.

For `COc1ccccc1OP(C)(=O)Nc1ccccc1Br` (configuration not stated), the cellular ATP content (survival) was inactive: -0.2%.

Take `CC(C)(C)c1ccc(OP(C)(=O)O)cc1`: the cellular ATP content (survival) was inactive: 2%.

Turning to `CP(=O)(Nc1ccc(Cl)cc1)Oc1ccc(F)cc1` (configuration not stated), the cellular ATP content (survival) is inactive: 0.2%.

With `COc1ccc(OP(C)(=O)Nc2ccccn2)cc1` (configuration not stated), the cellular ATP content (survival) is inactive: 0.1%.

As to `CN(C)CCOC(=O)C(O)(c1ccccc1)C1CCCC1` (configuration not stated), the cellular ATP content (survival) was inactive: 0.5%.

`COc1ccccc1OP(C)(=O)Nc1ccc(C)cc1C` (configuration not stated): the cellular ATP content (survival) was inactive: -1%.

On to `CCc1ccc(OP(C)(=O)O)cc1`, for which the cellular ATP content (survival) is inactive: -0.6%.

Regarding `Cc1c(NP(C)(=O)Oc2ccc(C(C)C)cc2)c(=O)n(-c2ccccc2)n1C` (configuration not stated), the cellular ATP content (survival) was inactive: 0.4%.

Consider `O=[N+]([O-])c1cc([N+](=O)[O-])c(Nc2ccccn2)c([N+](=O)[O-])c1`, for which the cellular ATP content (survival) is inactive: 4.4%.

In the case of `COc1ccccc1OP(C)(=O)Nc1ccc(C)c(C)c1` (configuration not stated), the cellular ATP content (survival) is inactive: -1.2%.

On to `COc1ccc(OP(C)(=O)Nc2ccccc2Br)cc1` (configuration not stated), for which the cellular ATP content (survival) is inactive: 0.1%.

Turning to `Cc1cc(C)cc(OP(C)(=O)Nc2cccc(C(F)(F)F)c2)c1` (configuration not stated), the cellular ATP content (survival) was inactive: -0.3%.

Regarding `CP(=O)(Nc1ccc(Cl)cc1Cl)Oc1ccccc1` (configuration not stated), the cellular ATP content (survival) was inactive: -0.2%.

On to `CP(=O)(OCCOc1ccccc1)OCCOc1ccccc1`, for which the cellular ATP content (survival) is inactive: 0.3%.

`Cc1nc2ccc3ccccc3c2o1.O=[N+]([O-])c1cc([N+](=O)[O-])c(O)c([N+](=O)[O-])c1`: the cellular ATP content (survival) was inactive: -1.6%.

With `O=[N+]([O-])c1ccc2c(c1)C=Nc1ccccc1O2`, the cellular ATP content (survival) is inactive: -1.3%.

`CC(C)(C)c1ccc(OP(C)(=O)Nc2ccc(SC(F)(F)F)cc2)cc1` (configuration not stated): the cellular ATP content (survival) is inactive: -0.2%.

For `Cc1cc(C)cc(OP(C)(N)=O)c1` (configuration not stated), the cellular ATP content (survival) is inactive: -0.4%.

Consider `COc1ccc(OP(C)(=O)Nc2cccc(F)c2)cc1` (configuration not stated), for which the cellular ATP content (survival) was inactive: -2.4%.

As for `COc1ccccc1OP(C)(=O)Nc1cc(Cl)ccc1C` (configuration not stated), the cellular ATP content (survival) is inactive: 1.3%.

On to `Cc1ccc(NP(C)(=O)Oc2ccccc2)c(C)c1` (configuration not stated), for which the cellular ATP content (survival) is inactive: 1.6%.

As to `COc1ccccc1OP(C)(=O)Nc1ccc(C)cc1` (configuration not stated), the cellular ATP content (survival) is inactive: 1.2%.

Regarding `CCOC(=O)c1ccc(NP(C)(=O)Oc2ccccc2)cc1` (configuration not stated), the cellular ATP content (survival) was inactive: -0.9%.

On to `CCN(CC)CCCOC(=O)C(O)(c1ccccc1)c1ccccc1`, for which the cellular ATP content (survival) was inactive: -0.1%.

For the compound `Cc1cc(C)cc(OP(C)(=O)Nc2ccc(SC(F)(F)F)cc2)c1` (configuration not stated), the cellular ATP content (survival) is inactive: 0.5%.

Turning to `CP(=O)(NC(=O)Nc1ccccc1)Oc1ccccc1` (configuration not stated), the cellular ATP content (survival) is inactive: -1.4%.

`CP(=O)(Oc1ccccc1)OC(c1ccccc1)C(F)(F)F` (configuration not stated): the cellular ATP content (survival) is inactive: -0.2%.

Consider `Cc1cccc(C)c1OP(C)(=O)Nc1ccc(SC(F)(F)F)cc1` (configuration not stated), for which the cellular ATP content (survival) is inactive: -1.4%.

As to `CP(=O)(Nc1ccccn1)Oc1ccc(Cl)cc1` (configuration not stated), the cellular ATP content (survival) was inactive: 0.2%.

On to `CCOC(=O)c1ccc(NP(C)(=O)Oc2ccc(OC)cc2)cc1` (configuration not stated), for which the cellular ATP content (survival) was inactive: 0.4%.

Consider `CP(=O)(Nc1ccccc1Br)Oc1ccccc1` (configuration not stated), for which the cellular ATP content (survival) was inactive: -3%.

Regarding `COc1ccccc1OP(C)(=O)Nc1ccccc1` (configuration not stated), the cellular ATP content (survival) was inactive: -0.8%.

For `CP(=S)(Nn1cnnc1)Oc1ccccc1` (configuration not stated), the cellular ATP content (survival) is inactive: -1.4%.

Regarding `CN(C)C1(CNC(=O)c2ccc(S(C)(=O)=O)cc2)CCCCC1`, the cellular ATP content (survival) is inactive: -1.2%.

Regarding `CCCOc1ccc(NP(C)(=O)Oc2ccc(Cl)cc2)cc1` (configuration not stated), the cellular ATP content (survival) is inactive: 1.1%.

In the case of `CP(=O)(Nc1ccc(SC(F)(F)F)cc1)Oc1ccccc1` (configuration not stated), the cellular ATP content (survival) was inactive: -0.6%.

For `CN1CCCCC1COC(=O)C1(O)c2ccccc2CCc2ccccc21` (configuration not stated), the cellular ATP content (survival) is inactive: -5%.

Regarding `COc1ccccc1OP(C)(=O)Nc1c(C)cccc1C` (configuration not stated), the cellular ATP content (survival) is inactive: 6.3%.

On to `O=[N+]([O-])c1cc([N+](=O)[O-])c(-n2nnc3ccccc32)c([N+](=O)[O-])c1`, for which the cellular ATP content (survival) is inactive: -0.2%.

For the compound `Cc1nc2ccc3ccccc3c2s1.O=[N+]([O-])c1cc([N+](=O)[O-])c(O)c([N+](=O)[O-])c1`, the cellular ATP content (survival) is inactive: 3.5%.

Consider `CCOC(=O)c1ccc(NP(C)(=O)Oc2cc(C)cc(C)c2)cc1` (configuration not stated), for which the cellular ATP content (survival) was inactive: -2%.

On to `Cc1cc(C)cc(OP(C)(=O)Nc2ccc(C)cc2C)c1` (configuration not stated), for which the cellular ATP content (survival) is inactive: 0.8%.

Regarding `COc1cc(C(=O)NCC2(N3CCOCC3)CCCCC2)cc(Cl)c1OC(C)C`, the cellular ATP content (survival) is inactive: -0.1%.

Take `Cc1ccc(C)c(NP(C)(=O)Oc2ccccc2)c1` (configuration not stated): the cellular ATP content (survival) is inactive: -0.8%.

As to `Cc1cc(C)cc(OP(C)(=O)Nc2ccccn2)c1` (configuration not stated), the cellular ATP content (survival) is inactive: -0.3%.

For the compound `CC1=NCCc2c1[nH]c1ccccc21.O=[N+]([O-])c1cc([N+](=O)[O-])c(O)c([N+](=O)[O-])c1`, the cellular ATP content (survival) is inactive: -1.9%.
